Experimental data from US20230096602A1, “TETRAHYDROCYCLOPENTA[B]INDOLE COMPOUNDS FOR TREATMENT OF RENAL DISEASE” (Eirgen Pharma Ltd., priority 2020, published 2023).

Assays:
[1] = tested on: orchidectomized (ORX) rats; experiment: Testosterone induced prostate and seminal vesicle growth in delayed ORX rat model; type: in vivo; details: ORX + Example 1, 10 mg/kg/d (no TE) vs ORX + TE; Dunnett
From the text: Orchidectomized (ORX) and sham-operated Wistar male rats were used (orchidectomized at 8 weeks of age and allowed to waste for 4 weeks). […] Rats were randomized and placed into treatment groups (n=6) based on body weight. Route of administration for all groups except testosterone enanthate (TE was given sub-cutaneously) was oral. At the end of 2 weeks of daily rats were euthanized, weighed & tissue harvested. Levator ani, prostates, and seminal vesicles were collected from each animal. Results are plotted as means±SE.

LnCAP cells = experiment: LnCAP gene expression; type: cell-based, human; details: PSA

Which “prostate weights Abs(Dif)-LSD” value [1] does the source give for `CC(C)OC(=O)N[C@H]1Cc2c(n(Cc3ccccn3)c3ccc(C#N)cc23)C1` [compound of Formula II, (S)-(7-cyano-4-pyridin-2-ylmethyl-1,2,3,4-tetrahydro-cyclopenta[b]indol-2-yl)-carbamic acid isopropyl ester] here?
The value was 0.357.

And the EC50 (LnCAP cells)?
The EC50 was 2.64 nM.
